Laboratory results taken from patent US6506936B1, “N-substituted arylsulfonylamino hydroxamic acids useful as inhibitors of c-proteinase and for treating or preventing disorders related to unregulated collagen production” (FibroGen, Inc., priority 1999, dated 2003).

Protein sequences, listed by entry. Tags and fused reporters are not part of them. Residues count along the entry.
UniProt P13497, 121-986 limits assumed: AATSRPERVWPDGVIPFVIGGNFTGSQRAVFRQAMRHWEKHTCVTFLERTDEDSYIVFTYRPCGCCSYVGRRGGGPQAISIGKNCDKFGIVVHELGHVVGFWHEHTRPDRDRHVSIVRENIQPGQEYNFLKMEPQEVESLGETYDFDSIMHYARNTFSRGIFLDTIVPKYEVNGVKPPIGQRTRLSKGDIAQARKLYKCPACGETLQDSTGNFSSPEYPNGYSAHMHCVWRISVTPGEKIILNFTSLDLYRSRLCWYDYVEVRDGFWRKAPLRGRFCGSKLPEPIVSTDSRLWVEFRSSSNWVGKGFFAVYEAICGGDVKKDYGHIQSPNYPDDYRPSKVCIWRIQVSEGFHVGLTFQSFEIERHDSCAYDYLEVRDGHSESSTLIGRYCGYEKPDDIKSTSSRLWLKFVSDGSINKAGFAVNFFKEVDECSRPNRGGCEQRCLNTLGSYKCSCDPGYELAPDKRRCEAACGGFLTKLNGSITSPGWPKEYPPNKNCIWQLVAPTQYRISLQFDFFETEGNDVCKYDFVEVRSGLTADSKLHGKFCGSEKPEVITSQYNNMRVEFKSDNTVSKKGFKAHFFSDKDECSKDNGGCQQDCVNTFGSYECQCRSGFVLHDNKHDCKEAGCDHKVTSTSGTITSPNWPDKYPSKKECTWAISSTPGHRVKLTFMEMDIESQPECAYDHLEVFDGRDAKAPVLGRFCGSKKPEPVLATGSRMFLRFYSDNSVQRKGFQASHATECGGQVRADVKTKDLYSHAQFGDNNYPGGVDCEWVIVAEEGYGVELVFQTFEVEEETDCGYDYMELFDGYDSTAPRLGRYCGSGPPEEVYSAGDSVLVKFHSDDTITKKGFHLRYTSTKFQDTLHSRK

Target: recombinant human C-proteinase (Homo sapiens, UniProt P13497)
Experiment: C-proteinase IC50 assay with fluorogenic peptide
Assay type: biochemical
Conditions: read-out: IC50 (μM) Of Various C-Proteinase Inhibitors, 50 μM fluorogenic peptide, 4 hours at 37° C.

| Compound | IC50 |
| --- | --- |
| COc1ccc(S(=O)(=O)N(CCC(=O)NO)CCc2ccc(OC)c(OC)c2)cc1 | 14.5 µM |
| O=C(CCN(CCc1cccs1)S(=O)(=O)c1ccc(OC(F)(F)F)cc1)NO | 8.88 µM |
| O=C(CCN(Cc1ccc2c(c1)OCO2)S(=O)(=O)c1c(Cl)nc2sccn12)NO | 0.59 µM |
| O=C(CCN(CCc1cccs1)S(=O)(=O)c1cccc2nsnc12)NO | 3 µM |
| COc1ccc(CCN(CCC(=O)NO)S(=O)(=O)c2ccccc2C(N)=NO)cc1 | 7.12 µM |
| CS(=O)(=O)c1ccccc1S(=O)(=O)N(CCC(=O)NO)CCc1cccs1 | 17.5 µM |
| O=C(CCN(Cc1ccc2c(c1)OCO2)S(=O)(=O)c1ccc(OC(F)(F)F)cc1)NO | 2.85 µM |
| O=C(CCN(Cc1ccc2c(c1)OCO2)S(=O)(=O)c1cccc(C(=O)O)c1)NO | 0.35 µM |
| O=C(CCN(Cc1ccc2c(c1)OCO2)S(=O)(=O)c1ccc(C(=O)O)cc1)NO | 0.87 µM |
| COc1ccc(S(=O)(=O)N(CCC(=O)NO)CCc2cccs2)cc1 | 5.7 µM |
| NC(=NO)c1ccccc1S(=O)(=O)N(CCC(=O)NO)Cc1ccc2c(c1)OCO2 | 19.1 µM |
| O=C(CCN(CCc1cccs1)S(=O)(=O)c1ccc(C(=O)O)cc1)NO | 0.58 µM |
| Cn1cnc(S(=O)(=O)N(CCC(=O)NO)CCc2cccs2)c1 | 13.7 µM |
| COc1ccc(CCN(CCC(=O)NO)S(=O)(=O)c2ccc(C(=O)NO)s2)cc1 | 4.08 µM |
| NC(=NO)c1ccccc1S(=O)(=O)N(CCC(=O)NO)CCc1cccs1 | 12.9 µM |
| O=C(CCN(Cc1ccc2c(c1)OCO2)S(=O)(=O)c1ccc(C(F)(F)F)cc1)NO | 2.6 µM |
| COc1ccc(CCN(CCC(=O)NO)S(=O)(=O)c2ccccc2S(C)(=O)=O)cc1 | 9.07 µM |
| COC(=O)c1ccccc1S(=O)(=O)N(CCC(=O)NO)CCc1ccc(OC)cc1 | 2.42 µM |

| Compound | IC50 |
| --- | --- |
| O=C(CCN(CCc1cccs1)S(=O)(=O)c1cccc(C(=O)O)c1)NO | 0.75 µM |
| COC(=O)c1ccccc1S(=O)(=O)N(CCC(=O)NO)CCc1cccs1 | 15.4 µM |
| COc1ccc(S(=O)(=O)N(CCC(=O)NO)C2CCN(Cc3ccccc3)CC2)cc1 | > 10 µM |
| CS(=O)(=O)c1ccccc1S(=O)(=O)N(CCC(=O)NO)Cc1ccc2c(c1)OCO2 | 8.39 µM |
| O=C(CCN(CCc1cccs1)S(=O)(=O)c1c(Cl)nc2sccn12)NO | 2.61 µM |
| N#Cc1c(Cl)cccc1Oc1ccc(S(=O)(=O)N(CCC(=O)NO)CCc2cccs2)cc1 | 5.37 µM |
| N#Cc1c(Cl)cccc1Oc1ccc(S(=O)(=O)N(CCC(=O)NO)Cc2ccc3c(c2)OCO3)cc1 | 6.01 µM |
| O=C(CCN(Cc1ccc2c(c1)OCO2)S(=O)(=O)Cc1ccccc1)NO | 1.17 µM |
| COc1ccc(S(=O)(=O)N(CCCC(=O)NO)Cc2ccccc2)cc1 | 10 µM |
| COc1ccc(S(=O)(=O)N(CCCC(=O)NO)c2ccccc2)cc1 | 29 µM |
| COc1ccc(S(=O)(=O)N(CC(=O)NO)c2ccccc2)cc1 | 39 µM |
| O=C(CCN(CCc1cccs1)S(=O)(=O)c1ccc(C(F)(F)F)cc1)NO | 8.36 µM |
| COC(=O)c1ccccc1S(=O)(=O)N(CCC(=O)NO)Cc1ccc2c(c1)OCO2 | 9.07 µM |
| COc1ccc(S(=O)(=O)N(CCC(=O)NO)CCc2cccs2)cc1OC | 3.85 µM |
| COc1ccc(S(=O)(=O)N(CCC(=O)NO)CC2CCCO2)cc1 (centres unmarked) | > 10 µM |
| COc1ccc(N(CC(=O)NO)S(=O)(=O)c2ccc(OC)cc2)cc1 | 72.8 µM |
| Cn1cnc(S(=O)(=O)N(CCC(=O)NO)Cc2ccc3c(c2)OCO3)c1 | 12.4 µM |
